Most compounds without a hit are left out; they make up all but 13% or so of the library.
G9a inh: blocks human histone lysine methyltransferase G9a; actives 8.8% (n = 350,000); G9a H3K9 monomethylation, AlphaScreen, 2 h; Potency, µM (titrated, usually from 102 µM), for the others: at the highest dose activity, negative = inhibition, actives largely listed as inhibitors; AID 504332; note: potency is the fitted concentration of half-maximal effect; % is set by controls: 0 for no effect and ±100 for the full control effect; nearly all actives have a fitted effect of over 75% in size
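G9a (20 nM) was preincubated 15 min with compound, then reacted 2 h at room temperature with 500 nM biotin-H3K9 peptide and 20 µM SAM. Monomethyl-H3K9 detected by AlphaScreen using anti-H3K9me1 antibody.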
Sfp PPTase inh: inhibitors of Bacillus subtilis Sfp phosphopantetheinyl transferase. Q9F4F7. Biochemical Sfp PPTase activity, qHTS. Potency, µM, without a hit: max response, negative = inhibition, most hits filed as inhibitors. 3.5% of 310,000 active; active = well fitted inhibition curve with a large enough effect; inconclusive = small, poorly fitted or top-dose-only effect, or another doubt; inactive = no such curve, though single readings can be large or run the other way;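 note: the enzyme is Sfp with the accession as filed and its product quenches rhodamine fluorescence; potency is the fitted concentration of half-maximal effect; 0% = enzyme reaction without inhibitor and -100% = no enzyme wells; top concentration of the series not given in the record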
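Buffer: 50 mM Hepes-Na pH 7.6, 10 mM MgCl2, 0.01% Nonidet P-40, 0.01% BSA. Enzyme 15 nM, pre-exposed to compound 15 min; substrates then added and fluorescence change tracked over 30 min.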
JMJD2E inh: blocks human JMJD2E demethylase activity; JMJD2E catalytic domain, FDH-coupled NADH fluorescence (FDH is formaldehyde dehydrogenase); Potency, µM (titrated, usually from 57.1 µM), for inactives: top-dose activity change, negative = inhibition, actives largely listed as inhibitors; actives 1.6% (n = 230,000); active = well fitted inhibition curve with a large enough effect, not every such curve was filed as active; inconclusive = small, poorly fitted or top-dose-only effect, or another doubt; inactive = no such curve, though single readings can be large or run the other way;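 note: potency is the fitted concentration of half-maximal effect; 0% = wells with enzyme and -100% = buffer wells without enzyme; nearly all actives have a fitted effect of over 50% in size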
miR-21 reporter: raises the signal of a miR-21 reporter; AID 2288; 340,000 tested, under 10 active; Potency, µM (doses to about 38.3 µM), inactives show at the top dose reporter change, positive = more light; HeLa miR-21 FLuc reporter, luciferase, 48 h; active = well fitted rising curve with a large enough effect; inconclusive = small, poorly fitted or top-dose-only effect; inactive = no such curve, though single readings can be large or run the other way;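 note: % of control where 0% means no effect; miR-21 action dims this reporter so a rising signal means less miR-21 action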
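HeLa miR-21-FLuc reporter line, endogenous miR-21; 2000 cells/well in DMEM/10% FBS; compound titration up to ~40uM final, 48 h, 37 degree Celsius; luciferase detection reagent, 15 min lysis, CCD luminescence.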
LMNA splice mod: changes lamin A minigene splicing in HeLa cells; HeLa LMNA splicing GFP/RFP minigene ratio, 48 h; actives 0.01% (n = 200,000); Potency, µM (series often up to 46.1 µM), inactives show top-dose ratio change, negative = inhibition, actives largely listed as inhibitors; AID 1487; active = well fitted inhibition curve with a large enough effect in the signal ratio, with a control signal flat, not every such curve was filed as active; inconclusive = small, poorly fitted or top-dose-only effect, or effect the other way, or a change in a side signal; the % refers to the signal ratio; note: potency is the fitted concentration of half-maximal effect; % is set by controls: 0 for no effect and ±100 for the full control effect
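S3 HeLa stable clones carrying a lamin A-EGFP splicing minigene plus DsRed2 were seeded at 600 cells/well in Opti-MEM with 2% FBS, pin-dosed and incubated 48 h at 37°C. Acumen cytometry (488 nm) gave the GFP/RFP total-intensity ratio.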
ALDH1A1 inh: inhibitors of human aldehyde dehydrogenase 1A1; Purified ALDH1A1, NADH fluorescence, propionaldehyde substrate; Potency, µM (highest dose often 75.3 µM), for the others: at the highest dose activity, negative = inhibition, usual class: inhibitors; AID 1030; P00352; actives 7.3% (n = 220,000); active = well fitted inhibition curve with a large enough effect, not every such curve was filed as active; inconclusive = small, poorly fitted or top-dose-only effect, or another doubt; inactive = no such curve, though single readings can be large or run the other way;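 note: potency is the fitted concentration of half-maximal effect; plate controls were no enzyme wells and a reference inhibitor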
* = called active by the depositor; ? = inconclusive; / = not tested or not shown; [ ] = dose if it differs, or a comment. Unless noted, calls come from the whole dose curve; as a rule, active = well fitted curve in the direction sought with a large enough effect; inconclusive = small, poorly fitted or top-dose-only effect, or another doubt; inactive = no such curve, though single readings can be large; an effect the other way counts as inactive or inconclusive.

SMILES	G9a inh	Sfp PPTase inh	JMJD2E inh	miR-21 reporter	LMNA splice mod	ALDH1A1 inh
Cc1cc(C)c2nc3nc(C)c(C)cc3c(N)c2c1	50µM*	2%	?	27%	/	?
CN(C)c1ccc2c(c1)Sc1cc(N(C)C)ccc1N2C(=O)c1ccccc1	10µM*	-12%	-2%	1%	/	/
COc1ccccc1/C=C/c1onc(C)c1S(=O)(=O)N1CCC(C(=O)NC(C)C)CC1	5%	-9%	/	-2%	/	/
COc1cc2c(cc1OC)-c1cc(NC3CCCCCCC3)nc(=O)n1CC2	45µM*	0%	?	-41%	?	?
COC1CCCN(C(=O)c2cccc(OC3CCN(S(C)(=O)=O)CC3)c2)C1 (stereo unspecified)	-5%	19%	/	-2%	/	/
CCOCCN1CCN(C(=O)CN2CCCC2=O)CC1	7.9µM*	2%	-1%	0%	-2%	-4%
Cc1cc2nc3c(=O)[nH]c(=O)[nH]c3nc2c([N+](=O)[O-])c1N	32µM*	?	?	1%	-3%[46 µM]	-11%
Cc1c(N)c(C(C)(C)C)cc(C(C)(C)C)c1[N+](=O)[O-]	6%	9%	12%	2%	7%	-10%

The final five entries of the part before open the next one.
SMILES	G9a inh	Sfp PPTase inh	JMJD2E inh	miR-21 reporter	LMNA splice mod	ALDH1A1 inh
COc1cc2c(cc1OC)-c1cc(NC3CCCCCCC3)nc(=O)n1CC2	45µM*	0%	?	-41%	?	?
COC1CCCN(C(=O)c2cccc(OC3CCN(S(C)(=O)=O)CC3)c2)C1 (stereo unspecified)	-5%	19%	/	-2%	/	/
CCOCCN1CCN(C(=O)CN2CCCC2=O)CC1	7.9µM*	2%	-1%	0%	-2%	-4%
Cc1cc2nc3c(=O)[nH]c(=O)[nH]c3nc2c([N+](=O)[O-])c1N	32µM*	?	?	1%	-3%[46 µM]	-11%
Cc1c(N)c(C(C)(C)C)cc(C(C)(C)C)c1[N+](=O)[O-]	6%	9%	12%	2%	7%	-10%
Cc1onc(-c2ccccc2)c1C1=N/C(=C\c2ccccc2F)C(=O)O1	0%	7%	-15%	-2%	2%[46 µM]	0%
O=C1OC(c2ccc(F)cc2)=N/C1=C\c1ccc(Br)o1	50µM*	-12%	-5%	1%	?	3%
COc1ccc(Cc2n[nH]c(=S)n2Cc2ccccc2)cc1Cl	6.3µM*	9%	0%	-12%	/	6%
CCOc1ccc(Cc2n[nH]c(=S)n2Cc2ccccc2)cc1	1.1µM*	2%	-6%	-11%	?	?
Cc1ccc(OCc2n[nH]c(=S)n2Cc2ccccc2)cc1	?	8%	2%	1%	/	-1%
COc1ccccc1NC(=O)c1c(C)cc(C)nc1SCC(=O)Nc1ccc(C)cc1	-6%[59 µM]	/	/	4%	?	/
OC[C@H]1O[C@@H](n2cnc3c(N[C@H]4C[C@H]5CC[C@@H]4C5)ncnc32)[C@H](O)[C@@H]1O	35%[59 µM]	7%	/	/	/	-9%
CCOc1ccc(/C=N/NC(=O)CNC(=O)c2ccc(S(=O)(=O)N3CCOCC3)cc2)cc1	-1%	15%	-3%	1%	9%[46 µM]	-3%
COc1cc(C2Nn3c(nnc3-c3ccccc3OC)S2)ccc1O (stereo unspecified)	0.63µM*	?	-20%	-5%	-11%	24µM*
COc1ccccc1C1=Nn2c(nnc2-c2ccccc2O)SC1	/	-14%	/	/	/	/
NC(=O)C1CCN(C(=O)/C(=C/c2ccccc2)NC(=O)c2ccccc2)CC1	/	4%	/	1%	/	/
O=C(O)c1ncc(-c2ccccc2)cn1	8.9µM*	?	-14%	-1%	9%	8%
CCOC(=O)C(=NC1CCS(=O)(=O)C1)NNc1ccc(Br)cc1 (stereo unspecified)	10µM*	-25%	-13%	-3%	-12%[46 µM]	?
CCOC(=O)C(=NC(C)CC)NNc1cccc(C(F)(F)F)c1 (stereo unspecified)	?	7%	0%	0%	8%	-12%
CCOC(=O)C(=NC1CCCCC1)NNc1cccc(C(F)(F)F)c1	50µM*	1%	-17%	-4%	-11%	-11%
CCOC(=O)C(=NC1CCS(=O)(=O)C1)NNc1ccccc1Cl (stereo unspecified)	?	?	?	-3%	/	/
CCCCOc1ccc2ccccc2c1C=O	19%[12.7 µM]	-6%	-6%	-31%	7%	-10%
CCCCCCOc1ccc(C(=N)N(CCCC)CCCC)c2ccccc12	?	18µM*	/	/	/	/
CC1CCc2onc(C(=O)N3CCN(c4cccc(C(F)(F)F)c4)CC3)c2C1 (stereo unspecified)	17%[59 µM]	/	/	30%	?	/
Cn1c(=S)n(C)c2ccccc21	-7%[59 µM]	13%	-15%	-13%	?	8%
Cn1c(=S)ccc2ccccc21	10µM*	45µM*	-16%	-8%	-1%[46 µM]	25µM*
Cc1cccc(NC(=S)NNC(=O)c2csc(C(C)C)c2)c1	?	10%	-15%	-68%	?	13µM*

Bioassay records (PubChem)
